Measured values reported in PubChem BioAssay (Tox21).
This is a selection; strong and weak results do not stand in their true shares. Records with an inconclusive call do not appear. Active and inactive are the calls of the source. Calls follow the shape of the dose curve; as a rule, active = well fitted cell-killing curve with a large enough effect in the repeat runs; inconclusive = weak or mixed curves, or effect the other way; inactive = flat fitted curve, though single readings scatter.

Key:
[1] = cAMP Responsive Elements (CRE) small molecule antagonists, cell-based qHTS assay: qHTS cell viability counter screen (AID 2060913); conditions: CRE-bla HEK293T viability, CellTiter-Glo luminescence, 5 h; also: nearly all actives have a fitted effect of over 40% in size
Text: U.S. Tox21 Program National Center for Advancing Translational Sciences [NCATS] Division of Preclinical Innovation [DPI] U.S. Environmental Protection Agency [EPA] National Institutes of Environmental Health Sciences [NIEHS] National Toxicology Program [NTP] U.S. Food and Drug Administration [FDA] Tox21 Assay Overview: CREB (cyclic-AMP Responsive Element Binding Protein) is a cellular transcription factor. It binds to certain DNA sequences called cAMP Responsive Elements (CRE) and regulates the transcription of the genes. […] This cell line can be used to find agonists/antagonists of the cyclic AMP signaling pathway. The activation of the report gene under culture conditions can be detected by fluorescence intensity. […]
(§1) Tox21 Assay Protocol Summary: CRE-bla Hek 293T cells were suspended in assay medium (DMEM containing 10% dialyzed FBS, 0.1 mM NEAA, 1 mM sodium pyruvate and 25 mM HEPES) and dispensed at 2,000 cells/4 uL /well into 1536-well black wall/clear bottom plates using a Multidrop Combi (ThermoFisher Scientific, Waltham, MA) dispenser. […] The plates were incubated at room temperature for 2 h, then fluorescence intensities were measured using an Envision plate reader (PerkinElmer, Shelton, CT) at Excitation 405nm, Emission 460nm and 530nm. The % activity was determined from the ratio of 460nm/530nm. […]

[2] = cAMP Responsive Elements (CRE) small molecule agonists, cell-based qHTS assay: qHTS cell viability counter screen (AID 2060914); conditions: CRE-bla HEK293T viability, CellTiter-Glo luminescence, 5 h;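 also: viability read after 3 h of compound exposure; nearly all actives have a fitted effect of over 50% in size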
Text: National Center for Advancing Translational Sciences [NCATS]
Division of Preclinical Innovation [DPI]
U.S. Environmental Protection Agency [EPA]
National Institutes of Environmental Health Sciences [NIEHS]
National Toxicology Program [NTP]
U.S. Food and Drug Administration [FDA]
CREB (cyclic-AMP Responsive Element Binding Protein) is a cellular transcription factor. It binds to certain DNA sequences called cAMP Responsive Elements (CRE) and regulates the transcription of the genes. […] This cell line can be used to find agonists/antagonists of the cyclic AMP signaling pathway. The activation of the report gene under culture conditions can be detected by fluorescence intensity. […]
as §1, with “CRE-bla” for “Tox21 Assay Protocol Summary: CRE-bla”, “cells/5” for “cells/4”, “460nm/530nm. For cell viability readout that measures cytotoxicity, 4 uL /well of CellTiter-Glo reagent was added into the assay plates using Bioraptr FRD.” for “460nm/530nm.”
Potency is read from the fitted curve at half-maximal effect.

SMILES	Potency [1]	Potency [2]
N#CSc1ccc([N+](=O)[O-])cc1[N+](=O)[O-]	active: 68.6 µM	
O=[As]c1ccccc1 (configuration not stated)		active: 5.45 µM
